Measurements as given in publication PMC7251097, “Aspartate/asparagine-β-hydroxylase: a high-throughput mass spectrometric assay for discovery of small molecule inhibitors” (Scientific Reports, 2020).

Biological target: T1, His6-AspH315–758 (human aspartate/asparagine-β-hydroxylase, AspH) (Homo sapiens, UniProt Q12797)
T1 construct: N-Terminally His6-tagged human AspH315–758 (His6-AspH315–758) was produced in E. coli BL21 (DE3) cells; made in house; host or cells: E. coli BL21 (DE3), pET-28a(+) vector
T1 sequence (Q12797 315-758): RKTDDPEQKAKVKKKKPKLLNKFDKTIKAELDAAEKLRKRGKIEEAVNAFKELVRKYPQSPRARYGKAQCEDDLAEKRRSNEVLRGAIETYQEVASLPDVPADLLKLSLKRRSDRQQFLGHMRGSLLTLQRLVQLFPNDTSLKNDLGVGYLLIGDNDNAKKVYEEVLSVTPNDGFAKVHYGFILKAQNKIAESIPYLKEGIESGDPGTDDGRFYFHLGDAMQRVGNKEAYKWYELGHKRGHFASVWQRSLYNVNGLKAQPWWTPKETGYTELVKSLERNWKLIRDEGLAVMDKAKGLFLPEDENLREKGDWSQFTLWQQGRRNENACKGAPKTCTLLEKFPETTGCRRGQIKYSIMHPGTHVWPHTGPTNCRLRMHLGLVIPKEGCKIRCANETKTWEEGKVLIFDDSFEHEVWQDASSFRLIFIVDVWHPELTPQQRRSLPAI
Experiment: SPE-MS AspH inhibition assay (LOPAC screen at fixed 20 μM and IC50 dose-response), hydroxylation of cyclic peptide hFX-CP101–119
Type: biochemical

IC50 [μM] (pH 7.5) | Compound | Plate 5 (% conversion) [%]
– | CP-335963 | 39.30
inactive | C[N+](C)(C)NCCC(=O)[O-] [Meldonium, meldonium, reference compound] | –
